# B1: Glutamate receptor 2 (Rattus norvegicus (Rat)), P19491 (parent)
# chain: MQKIMHISVLLSPVLWGLIFGVSSNSIQIGGLFPRGADQEYSAFRVGMVQFSTSEFRLTPHIDNLEVANSFAVTNAFCSQFSRGVYAIFGFYDKKSVNTITSFCGTLHVSFITPSFPTDGTHPFVIQMRPDLKGALLSLIEYYQWDKFAYLYDSDRGLSTLQAVLDSAAEKKWQVTAINVGNINNDKKDETYRSLFQDLELKKERRVILDCERDKVNDIVDQVITIGKHVKGYHYIIANLGFTDGDLLKIQFGGANVSGFQIVDYDDSLVSKFIERWSTLEEKEYPGAHTATIKYTSALTYDAVQVMTEAFRNLRKQRIEISRRGNAGDCLANPAVPWGQGVEIERALKQVQVEGLSGNIKFDQNGKRINYTINIMELKTNGPRKIGYWSEVDKMVVTLTELPSGNDTSGLENKTVVVTTILESPYVMMKKNHEMLEGNERYEGYCVDLAAEIAKHCGFKYKLTIVGDGKYGARDADTKIWNGMVGELVYGKADIAIAPLTITLVREEVIDFSKPFMSLGISIMIKKPQKSKPGVFSFLDPLAYEIWMCIVFAYIGVSVVLFLVSRFSPYEWHTEEFEDGRETQSSESTNEFGIFNSLWFSLGAFMQQGCDISPRSLSGRIVGGVWWFFTLIIISSYTANLAAFLTVERMVSPIESAEDLSKQTEIAYGTLDSGSTKEFFRRSKIAVFDKMWTYMRSAEPSVFVRTTAEGVARVRKSKGKYAYLLESTMNEYIEQRKPCDTMKVGGNLDSKGYGIATPKGSSLGNAVNLAVLKLNEQGLLDKLKNKWWYDKGECGSGGGDSKEKTSALSLSNVAGVFYILVGGLGLAMLVALIEFCYKSRAEAKRMKVAKNPQNINPSSSQNSQNFATYKEGYNVYGIESVKI
# Variants of: B1
# Conditions: with q9wtw1-3 Grip2, Q9WTW1-3
row,Variant,effect of a mutation on the interaction
1,V881A,disrupting interaction
2,I883A,disrupting interaction
